# The entries are a selection whose mix differs from that of the whole data set. Activity calls are given as the source filed them. Cut-off read from the data, not from the text of the source: active = inhibition above about 50% (passing the limit was not always enough); inconclusive = no clear call, values can overlap the other calls.
# Chains of the proteins cited; added tags and fusions are not shown.
# UniProt P63279, whole entry, looked up: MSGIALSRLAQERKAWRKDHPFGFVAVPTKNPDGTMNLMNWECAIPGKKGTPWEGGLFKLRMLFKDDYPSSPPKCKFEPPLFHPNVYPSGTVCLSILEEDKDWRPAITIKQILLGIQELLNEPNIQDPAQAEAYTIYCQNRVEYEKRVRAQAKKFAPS
# Target: SUMO-conjugating enzyme UBC9 (Homo sapiens) (UniProt P63279)
# Assay: inhibitors of in vitro SUMOylation cascade, primary screen, biochemical, HTRF, uHTS (AID 2006)
# Conditions: HTRF SUMOylation assay, SAE1/SAE2 + UBC9, in vitro; at 35 µM; stronger effect = higher value
row,Structure (SMILES),inhibition
1,Cc1nn(-c2ccccc2)c2c1P(=O)(N1CCOCC1)N(C)C(c1ccccc1)=N2 (stereo unspecified),inactive: -0.7%
2,CC1CCC(C(C)C)C(OP(=O)(Nc2ccccn2)c2ccccc2)C1 (stereo unspecified),inactive: -12.9%
3,Cc1ccc(C(=O)OC2CN3CCC2CC3)cc1 (stereo unspecified),inactive: -6%
4,CN(C)C1(CNC(=O)c2ccc(S(C)(=O)=O)cc2)CCCCC1,inactive: 13.5%
5,O=C(/C=C/c1ccccc1)OC1CN2CCC1CC2 (stereo unspecified),inactive: -10.3%
6,O=P1(Nc2ncccn2)COc2ccccc2OC1,inactive: 1.6%
7,Nc1cccc([As](=O)(O)c2ccccc2)c1,inactive: 14.4%
8,O=P1(Nc2ccc(Br)cn2)COc2ccccc2OC1,inactive: 5.4%
9,Cc1ccc(OCC(=O)OC2CN3CCC2CC3)cc1 (stereo unspecified),inactive: -3.1%
10,O=[As](O)(c1cccs1)c1cccs1,inactive: 21.3%
11,O=P1(Nc2ccccn2)COc2ccccc2OC1,inactive: 8.4%
12,CCC1=CC2Cc3nc4ccc(Cl)cc4c(N)c3C(C1)C2 (stereo unspecified),inactive: 8.4%
13,CCOP(=O)(NC(=NC(C)c1ccccc1)NC(C)c1ccccc1)OCC (stereo unspecified),inactive: 12.4%
14,CCOP(=O)(Nc1ccc(C)cn1)OCC,inactive: 18.7%
15,Clc1n[nH]nc1-c1nn[nH][15n]1,inactive: 21.7%
16,CC(C)(C)C(=O)NC(Sc1ncccn1)C(Cl)(Cl)Cl (stereo unspecified),inactive: 1%
17,CC(C)/C=N\N=C(\N)N[N+](=O)[O-],inactive: 10.4%
18,CN(C(=O)Cc1ccc(Cl)c(Cl)c1)[C@@H]1CCCC[C@H]1N1CCCC1,inactive: 18.1%
19,O=[As](O)(c1ccccc1Br)c1ccccc1Br,inactive: 14.1%
20,O=C(OC1CN2CCC1CC2)c1ccc(Cl)cc1 (stereo unspecified),inactive: 5.9%
21,COc1cc(C(=O)NCC2(N3CCOCC3)CCCCC2)cc(Cl)c1OC(C)C,inactive: 2.7%
22,O=[As](O)(O)c1cccnc1,inactive: 13.9%

row,Structure (SMILES),inhibition
1,CS(=O)(=O)c1ccc(Cl)c(NC(=O)COC(=O)C(O)(c2ccccc2)c2ccccc2)c1,inactive: -17%
2,O=[As](O)(c1cccc(O)c1)c1cccc(O)c1,inactive: 13%
3,Cc1cccc(OCC(=O)OC2CN3CCC2CC3)c1 (stereo unspecified),inactive: -13.4%
4,Cc1ccc(NCCc2c([N+](=O)[O-])cc([N+](=O)[O-])cc2[N+](=O)[O-])cc1,inactive: 30.1%
5,CCCOP(=S)(Nc1nc(N)cc(=O)[nH]1)OCCC,inactive: 10.1%
6,COc1cc(C2NCCC3(OCCO3)C2(C)C)cc(OC)c1OC (stereo unspecified),inactive: -9.1%
7,CCOP(=O)(Nc1cccc2ccccc12)OCC,inactive: 1.2%
8,CCOP1(=S)c2c(C)nn(CCC#N)c2N=C(c2ccccc2F)N1C (stereo unspecified),inactive: -12.3%
9,O=P(Nc1nccs1)(c1ccccc1)c1nc2ccccc2s1 (stereo unspecified),inactive: 2.2%
10,O=P(Nc1nccs1)(Oc1ccccc1)Oc1ccccc1,inactive: 9.4%
11,CS(=O)(=O)c1cc([N+](=O)[O-])c2no[n+]([O-])c2c1,inactive: 29.8%
12,Nc1ccccc1[As](=O)(O)c1ccccc1,inactive: 14%
13,O=C(O)COc1ccc([As](=O)(O)O)cc1[N+](=O)[O-],inactive: -0.4%
14,NC(=O)Nc1ccc([As](=O)(O)O)cc1,inactive: 20.7%
15,CN(C(=O)Cc1ccccc1)[C@@H]1CC[C@]2(CCCO2)C[C@H]1N1CCCC1,inactive: -3.1%
16,CCOP1(=S)c2c(C)nn(CCC#N)c2N=C(c2ccc(F)cc2)N1C (stereo unspecified),inactive: 3.3%
17,O=[N+]([O-])c1ccc2c(c1)nnn2O,inactive: 1%
18,O=[As](O)(c1ccc(O)cc1)c1ccccc1O,inactive: 1%
19,C[As](=O)(O)c1cccc(C(=O)O)c1,inactive: 14.6%
20,Cc1ccc(OP(=O)(Nc2ccc([N+](=O)[O-])cn2)Oc2ccc(C)cc2)cc1,inactive: 15.6%
21,Cc1ccc2nc3c(c(C)c2c1)CC(C(Cl)Cl)S3 (stereo unspecified),inactive: -25.4%
22,ClCCSc1nnc(-c2cccnc2)o1,inactive: 13.7%

row,Structure (SMILES),inhibition
1,CC(C)c1ccc(OP(=O)(Nc2ccccn2)Oc2ccccc2F)cc1 (stereo unspecified),inactive: 9.2%
2,CCN(CC)C(=S)SC(NC=O)C(Cl)(Cl)Cl (stereo unspecified),inactive: -20.8%
3,CC(C)NC(=O)NP(=O)(Oc1ccccc1)Oc1ccccc1,inactive: 31%
4,Cc1c2c(nc3ccccc13)SC(C(Cl)Cl)C2 (stereo unspecified),inactive: 17.6%
5,O=C(OC1CN2CCC1CC2)C12CC3CC(CC(C3)C1)C2 (stereo unspecified),inactive: -5.3%
6,Cc1cc(=O)[nH]c(N[N+](=O)[O-])n1,inactive: 4.9%
7,COc1ccc2nc(NP(=O)(c3ccccc3)c3ccccc3)sc2c1,inactive: 4.2%
8,COc1cc(I)ccc1[As](=O)(O)O,inactive: -0.4%
9,COc1ccc(N/C(=N/P(=O)(N2CCOCC2)N2CCOCC2)N2CCOCC2)cc1,inactive: -9.6%
10,COP1(=S)c2c(C)nn(CCC#N)c2N=C(c2ccc(F)cc2)N1C (stereo unspecified),inactive: -1.4%
11,O=C(COc1ccccc1)OC1CN2CCC1CC2 (stereo unspecified),inactive: 11.1%
12,O=C(Nc1ccncc1[N+](=O)[O-])c1ccc([N+](=O)[O-])cc1[N+](=O)[O-],inactive: 10.4%
13,O=C(OC1CN2CCC1CC2)c1cccc([N+](=O)[O-])c1 (stereo unspecified),inactive: 0.8%
14,CCOC(=O)c1ccc(NC(=O)C(C)(CCl)SC)cc1 (stereo unspecified),inactive: -0.9%
15,CCC(C)N(CC(C)C)C(=S)SC(NC(C)=O)C(Cl)(Cl)Cl (stereo unspecified),inactive: 19.1%
16,CCOC(=O)Nc1ccc([As](=O)(O)O)c(O)c1,inactive: 27.7%
17,CCCCOc1ccc(C(=O)NCC2(N3CCCCC3)CCCCC2)cc1OC,inactive: 7.5%
18,Cc1cc(SC(NC(=O)c2ccccc2)C(Cl)(Cl)Cl)nc(C(C)C)n1 (stereo unspecified),inactive: 14.3%
19,CCOC(=O)Nc1cccc([As](=O)(O)O)c1,inactive: 15.6%
20,O=P(Nc1ccccn1)(c1cccc2ccccc12)c1cccc2ccccc12,inactive: -3.6%
21,Cc1cc(SC(NC=O)C(Cl)(Cl)Cl)ncn1 (stereo unspecified),inactive: 23.7%
22,O=[N+]([O-])c1ccc(Nc2ccc(Oc3ccc([N+](=O)[O-])cc3[N+](=O)[O-])cc2)c([N+](=O)[O-])c1,inactive: 11.9%

# Reference: PubChem BioAssay AID2006 (Sanford-Burnham Center for Chemical Genomics, 2009)
